Source: US5521199A, “Piperidinyl compounds as neurokinin receptor antagonists” (Zeneca Limited, priority 1993, dated 1996)

The chains behind the UniProt entries cited, without tags or fusion partners.
UniProt P21452, whole entry: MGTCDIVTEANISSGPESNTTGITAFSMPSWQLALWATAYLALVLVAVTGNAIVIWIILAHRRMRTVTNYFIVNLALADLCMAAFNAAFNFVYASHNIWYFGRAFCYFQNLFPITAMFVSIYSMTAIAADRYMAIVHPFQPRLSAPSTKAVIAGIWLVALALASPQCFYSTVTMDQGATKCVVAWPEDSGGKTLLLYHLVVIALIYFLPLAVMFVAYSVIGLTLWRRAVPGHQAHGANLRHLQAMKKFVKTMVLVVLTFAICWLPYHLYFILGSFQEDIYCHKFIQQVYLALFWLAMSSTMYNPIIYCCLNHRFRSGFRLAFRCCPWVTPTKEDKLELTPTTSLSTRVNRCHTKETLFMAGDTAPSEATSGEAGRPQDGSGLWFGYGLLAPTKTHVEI

Target: human NK2 receptor (Homo sapiens, UniProt P21452)
Test: Neurokinin A (NKA) Receptor-binding Assay (Test A)
Settings: read-out: IC50 versus 3H-NKA binding to MELM, 60 min at 25° C., pH 7.4

## CSCCC1NC(=O)C(CC(C)C)NC(=O)CNC(=O)C(Cc2ccccc2)NC(=O)C(Cc2c[nH]c3ccccc23)NC(=O)C(CCC(N)=O)NC1=O (stereo not shown)
  IC50: 30 nM
